Measurements as given in PubChem BioAssay AID504331 (Broad Institute, 2011).
The entries are a selection whose mix differs from that of the whole data set. Active and inactive are the calls of the source.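 The calls were made as follows: active = compounds that lower cell viability with a fitted AC50 at most ten times their top valid dose; inconclusive = flat fit showing 30 to 70 percent loss, or poor fit; inactive = the rest.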

Assay: toxicity in U2OS HRE-luc cells, iron medium, dose response, cytotoxicity control for HIF pathway activator project, iron-supplemented medium, dry powder (AID 504331)
Conditions: U2OS HRE-luc cells viability, CellTiter-Glo luminescence; at 38 µM (top of the series)
Method in brief: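 system = human U2OS osteosarcoma cells with 3xHRE-driven luciferase reporter | quantity = 6,000 cells per well | buffer or medium = phenol red-free DMEM, 10% FBS, 50 µM final ferric nitrate | dosing = 8 concentrations, 3-fold dilution steps | times = cells plated 24 h before dosing, 24 h compound exposure at 37 °C | technique = viability luminescence, CellTiter-Glo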

With `O=c1[nH]c2ccccc2n1C1CCN(Cc2ccc(O)c3ncccc23)CC1` the activity change, negative = cytotoxicity was inactive: -8.16%.
